Reference: patent EP4843985A1, “TRIAZOLOPYRIMIDINE DERIVATIVE, PREPARATION METHOD THEREFOR AND USE THEREOF” (dated 2026)
Values joined by “and” are separate entries in the source; they are usually repeats but may differ in a detail not shown here. Equal values may be shown once. Read-outs that look alike come from different tables or passages of the source.

Sequences of proteins named here, by UniProt entry; tags and fusion partners are left off. Residues count along the entry.
UniProt Q14191, 517-1238 limits assumed: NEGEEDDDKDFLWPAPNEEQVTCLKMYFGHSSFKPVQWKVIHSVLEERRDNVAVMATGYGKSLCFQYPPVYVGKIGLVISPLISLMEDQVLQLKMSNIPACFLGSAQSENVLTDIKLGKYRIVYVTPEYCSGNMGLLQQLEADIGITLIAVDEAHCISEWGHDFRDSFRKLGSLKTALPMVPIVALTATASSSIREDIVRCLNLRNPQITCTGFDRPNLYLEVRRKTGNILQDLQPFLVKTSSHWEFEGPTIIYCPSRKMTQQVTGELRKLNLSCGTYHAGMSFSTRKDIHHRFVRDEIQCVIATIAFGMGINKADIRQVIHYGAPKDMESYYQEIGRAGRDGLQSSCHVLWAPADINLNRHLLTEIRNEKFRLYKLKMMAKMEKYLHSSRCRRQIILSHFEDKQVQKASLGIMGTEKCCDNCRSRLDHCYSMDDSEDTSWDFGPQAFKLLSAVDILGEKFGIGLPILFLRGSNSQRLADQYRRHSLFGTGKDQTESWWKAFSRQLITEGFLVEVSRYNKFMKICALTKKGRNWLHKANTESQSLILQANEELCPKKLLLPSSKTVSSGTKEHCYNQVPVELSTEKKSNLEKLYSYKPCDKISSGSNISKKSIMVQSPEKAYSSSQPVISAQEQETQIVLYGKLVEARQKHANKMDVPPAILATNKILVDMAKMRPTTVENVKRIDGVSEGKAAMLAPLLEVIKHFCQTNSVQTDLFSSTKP

Tests used:
SW48 (CRC, MSI) = assay: Cell proliferation inhibition assay (CellTiter-Glo), SW48
[1] = target: WRN protein (AA N517-P1238) (Homo sapiens, UniProt Q14191); assay: In vitro WRN enzymatic activity assay (ADP-Glo ATPase assay); conditions: read-out: ADP-Glo, 10 nM WRN enzyme, 3 hours pre-incubation at 25°C, ssDNA substrate
SW620 (CRC, MSS) = assay: Cell proliferation inhibition assay (CellTiter-Glo), SW620; conditions: read-out: SW620 (CRC, MSS), 120 hours
[2] = read-out: SW48 (CRC, MSI), 120 hours

| IC50 (SW48 (CRC, MSI); [2]) | IC50 [1] [nM] | IC50 (SW620 (CRC, MSS)) [nM] | SMILES | further results |
| --- | --- | --- | --- | --- |
| 59.6 nM and 47.1 nM | 4.71 | > 10000 | CCc1c(N2CCN(C(=O)c3ncnc(C)c3O)CC2)c(=O)n2nc(C3=CCN(c4nnc(C)s4)CC3)nc2n1CC(=O)Nc1ccc(C(F)(F)F)cc1Cl |  |
| 77.5 nM | 6.39 | > 10000 | CCc1c(N2CCN(C(=O)c3ncnc(C)c3O)CC2)c(=O)n2nc(C3=CCN(c4ccccc4)CC3)nc2n1CC(=O)Nc1ccc(C(F)(F)F)cc1Cl |  |
| 59.8 nM | 4.81 | > 10000 | CCc1c(N2CCN(C(=O)c3ncnc(C)c3O)CC2)c(=O)n2nc(C3=CCC(C(=O)N4CC(F)(F)C4)CC3)nc2n1CC(=O)Nc1ccc(C(F)(F)F)cc1Cl (racemic) |  |
| 17 nM | 1.8 | > 10000 | CCc1c(N2CCN(C(=O)c3ncnc(C)c3O)CC2)c(=O)n2nc(C3=CCC(S(=O)(=O)N(C)C)CC3)nc2n1CC(=O)Nc1ccc(C(F)(F)F)cc1Cl (stereo not shown) |  |
| 51.8 nM | 7.65 | > 10000 | CCc1c(N2CCN(C(=O)c3ncnc(C)c3O)CC2)c(=O)n2nc(C3=CCN(C(=O)OC4CCC4)CC3)nc2n1CC(=O)Nc1ccc(C(F)(F)F)cc1Cl |  |
| 53.1 nM | 2 | > 10000 | CCc1c(N2CCN(C(=O)c3ncnc(C)c3O)CC2)c(=O)n2nc(C3=CCC(S(=O)(=O)c4ccccc4)CC3)nc2n1CC(=O)Nc1ccc(C(F)(F)F)cc1Cl (stereo not shown) |  |
| 32.2 nM | 6.82 | > 10000 | CCc1c(N2CCN(C(=O)c3ncnc(C)c3O)CC2)c(=O)n2nc(C3=CCN(C(=O)OC4CCCC4)CC3)nc2n1CC(=O)Nc1ccc(C(F)(F)F)cc1Cl |  |
| 72.5 nM | 8.69 | > 10000 | CCc1c(N2CCN(C(=O)c3ncnc(C)c3O)CC2)c(=O)n2nc(C3=CCOCC3)nc2n1CC(=O)Nc1scc(C(F)(F)F)c1Cl |  |
| 58.9 nM | 2.3 | > 10000 | CCc1c(N2CCN(C(=O)c3ncnc(C)c3O)CC2)c(=O)n2nc(C3=CCC(OC(=O)N4CCCC4)CC3)nc2n1CC(=O)Nc1ccc(C(F)(F)F)cc1Cl (stereo not shown) |  |
| 43.3 nM | 9.31 | > 10000 | CCc1c(N2CCN(C(=O)c3ncnc(C)c3O)CC2)c(=O)n2nc(C3=CCN(C(=O)CC4CC4)CC3)nc2n1CC(=O)Nc1ccc(C(F)(F)F)cc1Cl |  |
| 6.89 nM | 2.53 | > 10000 | [2H]C1([2H])CCC(c2nc3n4c(c(N5CCN(C(=O)c6ncnc(C)c6O)[C@H]6CC[C@@H]65)c(=O)n3n2)C(C)CC4C(=O)Nc2scc(C(F)(F)F)c2C)=CCO1 (single isomer, unassigned) |  |
| 45.6 nM | 4.2 | > 10000 | CCc1c(N2CCN(C(=O)c3ncnc(C)c3O)CC2)c(=O)n2nc(C3=CCCOCC3)nc2n1CC(=O)Nc1ccc(C(F)(F)F)cc1Cl |  |
| 42.5 nM | 1.9 | > 10000 | CCc1c(N2CCN(C(=O)c3ncnc(C)c3O)CC2)c(=O)n2nc(C3=CCC(C(=O)N(C(C)C)C(C)C)CC3)nc2n1CC(=O)Nc1ccc(C(F)(F)F)cc1Cl (racemic) |  |
| 7.35 nM | 1.38 | > 10000 | [2H]C1([2H])CCC(c2nc3n(CC(=O)Nc4ccc(C(F)(F)F)cc4Cl)c(CC)c(N4CCN(C(=O)c5ncnc(C)c5O)[C@H]5CC[C@@H]54)c(=O)n3n2)=CCO1 |  |
| 50.3 nM | 4.7 | > 10000 | CCc1c(N2CCN(C(=O)c3ncnc(C)c3O)CC2)c(=O)n2nc(C3=CCC(S(=O)(=O)C(C)(C)C)CC3)nc2n1CC(=O)Nc1ccc(C(F)(F)F)cc1Cl (stereo not shown) |  |
| 48.5 nM | 2.01 | > 10000 | [2H]C1([2H])C=C(c2nc3n(CC(=O)Nc4scc(C(F)(F)F)c4C)c(CC)c(N4CCN(C(=O)c5ncnc(C)c5O)CC4)c(=O)n3n2)CCC([2H])([2H])O1 |  |
| 69.8 nM | 2.9 | > 10000 | CCc1c(N2CCN(C(=O)c3ncnc(C)c3O)CC2)c(=O)n2nc(-c3ccc4ccoc4c3)nc2n1CC(=O)Nc1ccc(C(F)(F)F)cc1Cl |  |
| 50.8 nM | 6.63 | > 10000 | CCc1c(N2CCN(C(=O)c3ncnc(C)c3O)CC2)c(=O)n2nc(C3=CCOCCC3)nc2n1CC(=O)Nc1ccc(C(F)(F)F)cc1Cl |  |
| 45.2 nM | 4.7 | > 10000 | CCc1c(N2CCN(C(=O)c3ncnc(C)c3O)CC2)c(=O)n2nc(C3=CCN(C(=O)N4CC(F)(F)C4)CC3)nc2n1CC(=O)Nc1ccc(C(F)(F)F)cc1Cl |  |
| 27 nM | 4.24 | > 10000 | CCc1c(N2CCN(C(=O)c3ncnc(C4CC4)c3O)CC2)c(=O)n2nc(C3=CCOCCC3)nc2n1CC(=O)Nc1ccc(C(F)(F)F)cc1Cl |  |

| IC50 (SW48 (CRC, MSI); [2]) | IC50 [1] [nM] | IC50 (SW620 (CRC, MSS)) [nM] | SMILES | further results |
| --- | --- | --- | --- | --- |
| 43.4 nM | 4.39 | > 10000 | CCc1c(N2CCN(C(=O)c3ncnc(C)c3O)CC2)c(=O)n2nc(C3=CCOCC3)nc2n1CC(=O)Nc1scc(C(F)(F)F)c1C |  |
| 46.1 nM | 4.3 | > 10000 | CCc1c(N2CCN(C(=O)c3ncnc(C)c3O)CC2)c(=O)n2nc(C3=CCC(c4nnc(C)s4)CC3)nc2n1CC(=O)Nc1ccc(C(F)(F)F)cc1Cl (stereo not shown) |  |
| 16 nM | 2.6 | > 10000 | CCc1c(N2CCN(C(=O)c3ncnc(C)c3O)CC2)c(=O)n2nc(C3=CCN(C(=O)OC4CCOCC4)CC3)nc2n1CC(=O)Nc1ccc(C(F)(F)F)cc1Cl |  |
|  |  | > 10000 | CCc1c(N2CCN(C(=O)c3ncnc(C)c3O)CC2)c(=O)n2nc(C3=CCC(C(=O)N(C)C)CC3)nc2n1CC(=O)Nc1ccc(C(F)(F)F)cc1Cl (single isomer, unassigned) | IC50 (SW48 (CRC, MSI); read-out: SW48 (CRC, MSI), 120 hours, listed as 94-peak 1): 30.5 nM; IC50 (SW48 (CRC, MSI); read-out: SW48 (CRC, MSI), 120 hours, listed as 94-peak 2): 52.2 nM; IC50 ([1]; listed as 94-peak 1): 4.96 nM; IC50 ([1]; listed as 94-peak 2): 3.59 nM |
| 50.9 nM | 8.12 | > 10000 | CCc1c(N2CCN(C(=O)c3ncnc(C)c3O)CC2)c(=O)n2nc(C3=CCN(S(C)(=O)=O)CC3)nc2n1CC(=O)Nc1ccc(C(F)(F)F)cc1Cl |  |
| 26.8 nM | 0.83 | > 10000 | CCc1c(N2CCN(C(=O)c3ncnc(C)c3O)CC2)c(=O)n2nc(C3=CCOCCC3)nc2n1CC(=O)Nc1ccc(C(F)(F)F)c2sccc12 |  |
| 52 nM | 3.05 | > 10000 | CCc1c(N2CCN(C(=O)c3ncnc(C)c3O)CC2)c(=O)n2nc(C3=CCC(S(=O)(=O)C4CC4)CC3)nc2n1CC(=O)Nc1ccc(C(F)(F)F)cc1Cl (stereo not shown) |  |
| 79 nM | 3.9 | > 10000 | CCc1c(N2CCN(C(=O)c3ncnc(C)c3O)CC2)c(=O)n2nc(C3=CCC(N4CCOC4=O)CC3)nc2n1CC(=O)Nc1ccc(C(F)(F)F)cc1Cl (stereo not shown) |  |
| 49.8 nM | 14 | 8090 | CCc1c(N2CCN(C(=O)c3ncnc(C)c3O)CC2)c(=O)n2nc(C3=CCN(C(=O)OC4CCCCC4)CC3)nc2n1CC(=O)Nc1ccc(C(F)(F)F)cc1Cl |  |
| 48.3 nM | 6.86 | > 10000 | CCc1c(N2CCN(C(=O)c3ncnc(C)c3O)CC2)c(=O)n2nc(C3=CCN(C(=O)N(C(C)C)C(C)C)CC3)nc2n1CC(=O)Nc1ccc(C(F)(F)F)cc1Cl |  |
|  |  | > 10000 | CCc1c(N2CCN(C(=O)c3ncnc(C)c3O)CC2)c(=O)n2nc(C3=CCC(C(=O)N4CCCC4)CC3)nc2n1CC(=O)Nc1ccc(C(F)(F)F)cc1Cl (single isomer, unassigned) | IC50 (SW48 (CRC, MSI); read-out: SW48 (CRC, MSI), 120 hours, listed as 152-peak 1): 30.6 nM; IC50 (SW48 (CRC, MSI); read-out: SW48 (CRC, MSI), 120 hours, listed as 152-peak 2): 76.3 nM; IC50 ([1]; listed as 152-peak 1): 3.22 nM; IC50 ([1]; listed as 152-peak 2): 4 nM |
| 9.33 nM | 1.13 | > 10000 | [2H]C1([2H])CCC(c2nc3n4c(c(N5CCN(C(=O)c6ncnc(C)c6O)CC5)c(=O)n3n2)C(C)CC4C(=O)Nc2scc(C(F)(F)F)c2C)=CCO1 (single isomer, unassigned) [307-P4] |  |
| 54.7 nM | 4.51 | > 10000 | CCc1c(N2CCN(C(=O)c3ncnc(C)c3O)CC2)c(=O)n2nc(C3=CCC(OCC4CC4)CC3)nc2n1CC(=O)Nc1ccc(C(F)(F)F)cc1Cl (stereo not shown) |  |
| 78.2 nM | 6.9 | > 10000 | CCc1c(N2CCN(C(=O)c3ncnc(C)c3O)CC2)c(=O)n2nc(C3=CCC(OC4CCCCC4)CC3)nc2n1CC(=O)Nc1ccc(C(F)(F)F)cc1Cl (stereo not shown) |  |
| 27.7 nM and 25.8 nM | 0.84 | > 10000 | CCc1c(N2CCN(C(=O)c3ncnc(C)c3O)CC2)c(=O)n2nc(C3=CCC(C(=O)N(C)C)CC3)nc2n1CC(=O)Nc1ccc(C(F)(F)F)cc1Cl (stereo not shown) |  |
| 33.4 nM | 2.8 | > 10000 | CCc1c(N2CCN(C(=O)c3ncnc(C)c3O)CC2)c(=O)n2nc(C3=CCC(n4cccn4)CC3)nc2n1CC(=O)Nc1ccc(C(F)(F)F)cc1Cl (stereo not shown) |  |
| 44.3 nM | 0.63 | > 10000 | CCc1c(N2CCN(C(=O)c3ncnc(C)c3O)CC2)c(=O)n2nc(C3=CCOCC3)nc2n1CC(=O)Nc1ccc(C(F)(F)F)c2occc12 |  |
| 38 nM | 6.9 | > 10000 | CCc1c(N2CCN(C(=O)c3ncnc(C)c3O)CC2)c(=O)n2nc(C3=CCN(C(=O)OC4CC4)CC3)nc2n1CC(=O)Nc1ccc(C(F)(F)F)cc1Cl |  |
| 48.8 nM | 2.24 | > 10000 | CCc1c(N2CCN(C(=O)c3ncnc(C)c3O)CC2)c(=O)n2nc(C3=CCOCCC3)nc2n1CC(=O)Nc1cc(C(F)(F)F)sc1Cl |  |
| 42.9 nM | 2.16 | > 10000 | [2H]C1([2H])C=C(c2nc3n(CC(=O)Nc4ccc(C(F)(F)F)cc4Cl)c(CC)c(N4CCN(C(=O)c5ncnc(C)c5O)CC4)c(=O)n3n2)CCCO1 |  |
